From patent US11026914B2, “Use of dianhydrogalactitol and analogs and derivatives thereof to treat recurrent malignant glioma or progressive secondary brain tumor” (DelMar Pharmaceuticals, Inc., priority 2013, dated 2021)

Details: in vivo

O[C@H]([C@H](O)[C@@H]1CO1)[C@H]1CO1 [dianhydrogalactitol]
DLT: None
